Assay results: patent publication US9873709B2 (priority 2013, dated 2018)

Protein sequences, listed by entry. Tags and fused reporters are not part of them. Residues count along the entry.
UniProt P23458, 875-1153 limits assumed: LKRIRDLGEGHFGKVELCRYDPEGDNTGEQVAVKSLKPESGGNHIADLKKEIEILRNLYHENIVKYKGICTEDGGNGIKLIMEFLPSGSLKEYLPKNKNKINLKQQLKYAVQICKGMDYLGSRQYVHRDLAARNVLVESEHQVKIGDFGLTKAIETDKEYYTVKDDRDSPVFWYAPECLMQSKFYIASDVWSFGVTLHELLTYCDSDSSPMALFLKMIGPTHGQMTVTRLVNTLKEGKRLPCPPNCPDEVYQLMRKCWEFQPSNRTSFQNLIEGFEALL
UniProt O60674, 849-1124 limits assumed: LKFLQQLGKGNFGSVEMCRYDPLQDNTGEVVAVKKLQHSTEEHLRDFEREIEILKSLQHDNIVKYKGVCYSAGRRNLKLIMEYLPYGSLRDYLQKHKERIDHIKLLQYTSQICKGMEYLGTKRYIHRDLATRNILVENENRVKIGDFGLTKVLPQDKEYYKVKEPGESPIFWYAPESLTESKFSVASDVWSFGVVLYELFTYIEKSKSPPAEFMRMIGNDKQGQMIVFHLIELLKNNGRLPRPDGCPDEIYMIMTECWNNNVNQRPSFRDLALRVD

How the values were obtained:
[1] = system: JAK1-dependent STAT6 phosphorylation downstream of IL-13 stimulation in TF-1 human erythroleukemia cells
[2] = biological target: isolated recombinant JAK1 kinase domain (Homo sapiens (Human), UniProt P23458)
[3] = system: JAK1-dependent STAT6 phosphorylation downstream of IL-13 stimulation in BEAS-2B human bronchial epithelial cells
[4] = biological target: isolated recombinant JAK2 kinase domain (Homo sapiens (Human), UniProt O60674)

Row | SMILES | IC50 [1] [nM] | Ki [2] [nM] | IC50 [3] [nM] | Ki [4] [nM]
1 | O=C(NCC1COC2(CCNCC2)C1)c1ccc(Nc2nc3c(C4=CCN(C(=O)CCC(F)(F)F)CC4)cccn3n2)cc1 (stereo not drawn) | 305 | 0.88 |  | 
2 | CC1CC(C)CN(CCNC(=O)c2ccc(Nc3nc4c(N5CCC(CO)(c6ccc(Cl)cc6)CC5)cccn4n3)cc2)C1 (stereo not drawn) | 152 |  | 259 | 
3 | CCOC(=O)N1CC=C(c2cccn3nc(Nc4ccc(C(=O)N5CCCC6(CNCCO6)C5)cc4)nc23)CC1 (stereo not drawn) |  | 3.05 |  | 
4 | O=C(NCC1CCN(CC(F)(F)F)CC1)c1ccc(Nc2nc3c(N4CCC(CO)(c5ccc(Cl)cc5)CC4)cccn3n2)cc1 | 112 | 0.88 | 533 | 0.94
